## Apparent affinities of Ab-91 variants for a coronavirus HR2 peptide

Reference: Engelhart et al. 2022, doi:10.1038/s41597-022-01779-4. File: FLAb, binding data.

Binding partner: SARS-CoV-2 spike HR2 peptide, sequence PDVDLGDISGINAS.

Each scFv is VL, three GGGGS repeats, VH, as in the parent Ab-91, and differs from it in the CDRs of the heavy chain only.
VL: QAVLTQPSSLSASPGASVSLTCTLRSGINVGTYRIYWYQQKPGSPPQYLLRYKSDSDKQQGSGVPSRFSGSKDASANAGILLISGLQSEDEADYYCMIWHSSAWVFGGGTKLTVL
VH: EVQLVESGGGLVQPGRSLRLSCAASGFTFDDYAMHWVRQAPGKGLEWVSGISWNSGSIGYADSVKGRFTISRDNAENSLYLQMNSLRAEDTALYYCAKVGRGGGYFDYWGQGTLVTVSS

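Phage display of a naive human antibody library on the peptide gave the parent. Library AAYL51 holds single substitutions and randomly drawn double and triple substitutions in the CDRs. AlphaSeq pools MATa yeast showing the antibodies with MATalpha yeast showing the peptide. Binding brings cells together so that they mate, and sequencing counts the barcode pairs among the diploids. Read counts were normalised to the haploid input and turned into Kd by a linear fit to BCL2-family pairs of known affinity, for each replicate. There are three technical replicates.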

Changes read parent residue, position, new residue, counted from the first residue of the VH shown. Numbers give log10(Kd / nM), so 0 is 1 nM and 3 is 1 µM. Smaller is tighter. "nd" means that the variant was in the library but no mating with the target was seen in that replicate; the authors take this as a sign of poor binding, and no number exists.

changes,"log10 Kd, replicates",control signals
G50T+I58T+V64W,nd / 5.27 / nd,3 of 9 (4.95)
A33P+N54Y+G56T,4.68 / nd / 5.41,3 of 9 (4.84)
F27W+G59M+Y105S,nd / 4.38 / nd,2 of 9 (3.64)
Y32E+M34S+S52C,nd / nd / nd,0 of 9
H35D+S55R+K65L,3.54 / 5.50 / nd,3 of 9 (4.00)
F27D+V64Q+K65E,nd / nd / nd,0 of 9
W53R+N54E+G102K,nd / nd / nd,0 of 9
S57L+V64H+G102W,nd / 5.93 / nd,1 of 9 (3.55)
T28E+K65V+Y105P,nd / nd / nd,0 of 9
F29W+Y60M+G104Q,5.16 / nd / 4.47,3 of 9 (5.35)
G59D+S63Y+V64E,nd / nd / nd,0 of 9
T28V+D31Y,4.57 / nd / nd,3 of 9 (3.59)
N54G+D62K+R101A,4.89 / 5.24 / nd,4 of 9 (4.48)
S57F+V99M+G100M,nd / nd / nd,0 of 9
M34D+G104I+F106I,6.00 / nd / 3.71,5 of 9 (4.60)
S55I+S57K+Y105I,nd / nd / nd,0 of 9
G26Q+G100M+F106V,4.96 / nd / nd,0 of 9
I51R+N54L,4.70 / nd / nd,3 of 9 (4.71)
F27C+Y32W+G56V,nd / nd / nd,0 of 9
G59H+K65V+Y108G,nd / 5.91 / nd,3 of 9 (3.84)
M34C+A61M+F106E,nd / nd / 3.32,2 of 9 (4.14)
S63C+G103D+G104S,nd / 4.15 / nd,4 of 9 (3.87)
H35F+S52C+V99L,5.14 / nd / nd,4 of 9 (4.76)
G26S+D30Q+F106N,nd / nd / nd,0 of 9
G56E+S63V+G104C,4.10 / 6.13 / 4.94,1 of 9 (3.43)
M34V+F106M,4.75 / 5.86 / 4.32,2 of 9 (4.41)
S55Y+S63T+V99M,4.90 / 4.45 / nd,0 of 9
S63Y+G102I+G103R,nd / 4.54 / nd,4 of 9 (4.10)
T28I+K65V+Y105H,4.14 / nd / nd,0 of 9
G50D+S52F+F106G,nd / nd / nd,3 of 9 (5.39)
Y32F+S52E+G104S,5.93 / 6.07 / nd,4 of 9 (4.68)
F27Q+G50L+V64R,nd / nd / nd,0 of 9
A33F+I51N+G56A,nd / nd / nd,2 of 9 (3.90)
Y32D+I51H+G100E,nd / nd / nd,0 of 9
A33K+V64R+G102P,4.81 / nd / nd,9 of 9 (4.72)
F27G+M34E+D62K,5.18 / nd / nd,4 of 9 (4.66)
G26E+S55M+D107R,3.50 / nd / nd,0 of 9
D30V+I58H+R101G,nd / nd / nd,0 of 9
G26T+A33G+S55E,4.84 / nd / nd,2 of 9 (4.50)
N54Y+G104E+Y105K,nd / nd / nd,7 of 9 (4.88)
A61C+D62I+D107M,4.33 / 4.98 / nd,2 of 9 (4.75)
G102F+G104W+Y105P,6.12 / 5.66 / 5.33,7 of 9 (5.75)
F27T+H35R+N54L,nd / nd / nd,1 of 9 (3.10)
I51A+N54S,4.81 / nd / 3.63,2 of 9 (4.78)
G50H+G102F+D107Q,nd / nd / 4.82,3 of 9 (4.58)

Top 3 of the variants detected in all replicates, tightest first:

changes,"log10 Kd, replicates",control signals
M34V+F106M,4.75 / 5.86 / 4.32,2 of 9 (4.41)
G56E+S63V+G104C,4.10 / 6.13 / 4.94,1 of 9 (3.43)
G102F+G104W+Y105P,6.12 / 5.66 / 5.33,7 of 9 (5.75)

As a blank, each scFv also met three strains without target: over library AAYL51, 21% of these pairings were detected, typically at 4.54 and seldom below 3.26. For each scFv, signals with the empty controls are counted beside the result, with their mean in brackets.